# Source: patent US20160311934A1, “HYDROXYALKYL STARCH DERIVATIVES AS REACTANTS FOR COUPLING TO THIOL GROUPS” (FRESENIUS KABI DEUTSCHLAND GMBH, priority 2013, published 2016)
# Test: Stability tests of HES-protein conjugates at different pH, 40° C., 20 days
# Type: physicochemical
# Conditions: protein conjugate 1 mg/ml
# Method: For stability tests at pH 4.0, 5.5, 7.0 and 8.0, the conjugates were diluted into final buffer conditions of 20 mM acetate (pH 4.0 and 5.5) or 10 mM phosphate (pH 7.0 and 8.0), 0.5 mM ETDA, 154 mM NaCl to a final concentration of 1 mg/ml. The conjugates were stored at 40° C. for 20 days and analyzed by RP-HPLC (example for Ubi is shown in FIG. 3), SEC (as described in example C1) or SDS-PAGE (as described in example C1). The results obtained with different target molecules are given in Table 5 and in table 6 and FIGS. 4-6.
substance,measurement,setting,value
L12 X20 HSA,conjugate degradation after 20 days (%) pH 7.0,"10 mM phosphate pH 7.0, 40° C.",5.9%
same,conjugate degradation after 20 days (%) pH 8.0,"10 mM phosphate pH 8.0, 40° C.",10.5%
same,conjugate degradation after 20 days (%) pH 4.0,"20 mM acetate pH 4.0, 40° C.",0.1%
same,conjugate degradation after 20 days (%) pH 5.5,"20 mM acetate pH 5.5, 40° C.",1.3%
